## Yeast mating assay B: variants of the scFv Ab-14

Target: peptide PDVDLGDISGINAS, taken from heptad repeat 2 (HR2) of SARS-CoV-2 spike.

Parent scFv Ab-14: VH joined to VL by the linker GGGGSGGGGSGGGGS. Changes lie in the light chain CDRs alone.
VH: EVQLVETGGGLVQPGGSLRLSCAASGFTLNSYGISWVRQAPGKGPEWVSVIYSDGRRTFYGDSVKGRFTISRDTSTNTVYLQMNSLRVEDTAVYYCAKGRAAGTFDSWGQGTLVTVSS
VL: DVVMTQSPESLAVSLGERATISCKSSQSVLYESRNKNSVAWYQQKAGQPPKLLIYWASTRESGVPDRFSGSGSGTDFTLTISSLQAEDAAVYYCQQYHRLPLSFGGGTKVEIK

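The starting antibody came from a phage panning campaign against this peptide. Designed CDR sequences, proposed from the first random library and measured here. Several design methods are mixed in this list. The assay is AlphaSeq: two haploid yeast populations carry antibody and antigen on their surface. Binding brings cells together so that they mate, and sequencing counts the barcode pairs among the diploids. Read counts were normalised to the haploid input and turned into Kd by a linear fit to BCL2-family pairs of known affinity, for each replicate. There are six technical replicates.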

Each variant is given by its three light chain CDRs, as the data file delimits them; those of the parent are KSSQSVLYESRNKNSVA, WASTRES, QQYHRLPLS. Variants here have at most six changes. The Kd shown is the geometric mean over detected replicates; a lower Kd is a better binder. Where no diploid with the target was found in any replicate, the entry reads "nd": below detection, most likely a poor binder, though not proof of it. A sequence measured in both rounds can read differently, since the two assays cover different ranges. Where one sequence has several entries in the source, the replicates are pooled. The authors' rule: three or more of the six replicates give a measured affinity, fewer mean a poor binder. Background: pairings of all light chain designs with three empty control strains gave a value in 4% of cases (median 430 nM, 5th percentile 38 nM). Values in that range, when seen in few replicates, are hard to tell from nonspecific mating.

Variant KSSQSVLYESRNKNSVA | TASTRES | QQYCRLPLS gave 27 nM (4 of 6 replicates).
Variant KSSQSVLYESRNKNSVA | WASTRES | QMYHRLPLS gave 79 nM (5 of 6 replicates).
Variant KSSQSVLGEQRNKNSVA | DKSTRES | QQYHRLPLS gave 840 pM (6 of 6 replicates).
Variant KSSQSFLYESRNKNSNA | CASTRES | QQYHRLPLS gave nd (0 of 6 replicates).
Variant KSSQSVDYESTNKNSVA | WASTRES | QQYHRLPLS gave 93 nM (5 of 6 replicates).
Variant KSEQSVLYESRNKNSVA | WASTRES | QQYHRLPLS gave 78 nM (1 of 6 replicates).
Variant KSSMSYLGESRNKNSVA | EASTRES | QQYHRLPLS gave 1.2 nM (6 of 6 replicates).
Variant KSSQTVYYESRFKNFVA | WASTRES | QQYHRLPLS gave nd (0 of 6 replicates).
Variant KISQSLLYESSNKNSVA | AASTRES | QQYHRLPLS gave 1.9 nM (6 of 6 replicates).
Variant KVSQSVLYESRNKNSVA | NASTREQ | QQYHRLPLS gave 740 pM (6 of 6 replicates).
Variant HSSPSVMYESRNKNSVA | EASTRES | QQYHRLPLS gave 3.6 nM (6 of 6 replicates).
Variant KLQQSMLYESRNKNSVA | NASTRCS | QQYHRLPLS gave 660 pM (6 of 6 replicates).
Variant KLSQSYLYESTNSNSVA | DASTRYS | QQYHRLPLS gave 1.6 nM (6 of 6 replicates).
Variant KSSQSVLYESRNSNSVA | WASTRES | QQYHRLPLS gave 170 nM (6 of 6 replicates).
Variant KSSISYLYESENKASVA | EASQRES | QQYHRLPLS gave 4.1 nM (6 of 6 replicates).
Variant KLMQSWLYESRNKNSVA | NASQRES | QQYHRLPLS gave 780 pM (6 of 6 replicates).
Variant KSPQSHLYGSRNKNSVA | NASERES | QQYHRLPLS gave 2.7 nM (6 of 6 replicates).
Variant KQSQSVLYESVNKNSVA | DASTRET | QQYHRLPLS gave 1.4 nM (6 of 6 replicates).
Variant KGSQSWLYESRNKNSVA | GASTREN | QQYHRLPLS gave 200 pM (6 of 6 replicates).
Variant KLSPSWLYEERNDNSVA | NASTRES | QQYHRLPLS gave 690 pM (6 of 6 replicates).
Variant KVSQSHLYESRNKNAVA | GASTRES | QQYHRLPLS gave 1.1 nM (6 of 6 replicates).
Variant MSSQSLLYESRNKNSVA | WASTRES | QQYHILPLS gave nd (0 of 6 replicates).
Variant KSSQSVLYESRNKNSVA | NASTRES | QQQHRLPLS gave 370 nM (2 of 6 replicates).
Variant KSSQSELYESRNKNSVA | DASTRES | QQYWRLPLS gave 620 pM (6 of 6 replicates).
Variant KFMQSQLYESRNKNSVA | NASQRES | QQYHRLPLS gave 980 pM (6 of 6 replicates).
Variant KLSQSYLYESRNKNSVA | NASLRES | QQYHRLPLS gave 3.8 nM (6 of 6 replicates).
Variant KSSQSVLYESTNKNSVA | AASTRES | QQYHRLPLS gave 2.7 nM (6 of 6 replicates).
Variant KMMQSLLYESRNKNSVA | EASTRES | QQYHRLPLS gave 1.2 nM (6 of 6 replicates).
Variant KMSQSVLYESRNKNSVA | WASTRES | QQYHRLELF gave nd (0 of 6 replicates).
Variant KLSQSQLYESRMKNSVA | NASTRED | QQYHRLPLS gave 2.1 nM (6 of 6 replicates).
Variant KSSMSYLYESRNKNSVA | EASTRES | QQYHRLPLM gave 2.3 nM (6 of 6 replicates).
Variant KVPQSVLYESRNKNSVA | HASTRED | QSYHRLPLS gave 1.4 nM (6 of 6 replicates).
Variant KLSQSVLYESRNSNSVA | NASTRES | QDYHRLPLS gave 1.6 nM (6 of 6 replicates).
Variant KSSESVLYESRNKNSVA | DASTRES | QQYHRLPLS gave 1.2 nM (12 of 12 replicates).
Variant KESQSVLQESVNKNSVA | DASTRES | QQYHRLPLS gave 1.2 nM (6 of 6 replicates).
Variant KARQSELYEERNKNSVA | WASTRVS | QQYHRTPLS gave nd (0 of 6 replicates).
Variant HVSQSVLYESRNKNSVA | NASTRES | QQYHRLPLS gave 6.4 nM (6 of 6 replicates).
Variant KSSISSLYESRNENSVA | EASTREQ | QQYHRLPLS gave 2.2 nM (6 of 6 replicates).

The first 5 variants above that were never detected:

Variant KSSQSFLYESRNKNSNA | CASTRES | QQYHRLPLS showed nd (0 of 6 replicates).
Variant KSSQTVYYESRFKNFVA | WASTRES | QQYHRLPLS showed nd (0 of 6 replicates).
Variant MSSQSLLYESRNKNSVA | WASTRES | QQYHILPLS showed nd (0 of 6 replicates).
Variant KMSQSVLYESRNKNSVA | WASTRES | QQYHRLELF showed nd (0 of 6 replicates).
Variant KARQSELYEERNKNSVA | WASTRVS | QQYHRTPLS showed nd (0 of 6 replicates).

The measurements come from Li et al. 2023 (doi:10.1038/s41467-023-39022-2) through the FLAb antibody collection.